Results taken from US20020142945A1, “Immunomodulatory methods using carbohydrate antigens” (President and Fellows of Harvard College, priority 1998, published 2002).

Tested on: serum total IgE
Test: Serum total IgE by sandwich ELISA following immunization of mice
Format: in vivo
Text: Young adult (7-9 weeks old) CBA/J, BALB/C, and C57BL/6 strain female mice were purchased from Harlan (Indianapolis, Ind.). Female CBA/CaJ xid and age-matched control female CBA/CaJ mice were purchased from The Jackson Laboratory (Bar Harbor, ME). IL-4 deficient BALB/C mice were generated as described ( ). This deficient mice were bred and maintained at Harvard School of Public Health according to the guidelines set forth by the Harvard Medical Area Research Committee.
Multivalent LNnT or Lewis^γ were conjugated with HSA (LNnT-HSA and Le^y-HSA) by Accurate Chemical and Scientific Corporation (NY). In both neoglycoproteins, 13 molecules of sugar conjugated to 1 HSA molecule. As controls, HSA (Sigma Chemical Co., Mo.), HSA adsorbed to alum (Intergen Company, NY; HSA-alum), or Dulbecco's PBS (Gibco BRL, NY) were prepared for immunization. Groups of four to six mice were immunized intraperitoneally or subcutaneously with Ags (10 μg of HSA) or saline. First and second boosting immunization were performed in the same fashion 2 and 3 weeks later, respectively. Protein concentration was determined by bicinchoninic acid (BCA) assay (Pierce, Ill.).
Immunized mice were bled from the tail 10, 6, and 5 days following primary, first, and second boosting immunization, respectively. Total and HSA-specific IgE were determined by sandwich ELISA. In brief, ELISA plates (Corning Inc., NY) were coated overnight at 4° C. with 100 μl of 5 μg/ml rat anti-mouse IgE mAb (Biosource, CA) in carbonate-bicarbonate buffer, pH 9.6. After washing four times with PBS containing 0.05% Tween20 (PBS-T), plates were blocked with 200 μl PBS containing 10% FCS and 0.3% Tween20 for 2 hrs at 37° C. After washing as above, 100 μl samples of serially-diluted serum or standard mouse IgEmAb (Pharmingen, Calif.) were added in duplicate wells and incubated for 2 hrs at 37° C. Thereafter, 100 μl biotinylated anti-mouse IgEmAb (0.5 μg/ml, Pharmingen) or biotinylated HSA (1 μg/ml) were added to detect total IgE and HSA-specific IgE, respectively. After 2 hrs incubation at 37° C., plates were washed and 100 μl peroxidase-conjugated streptavidin (Sigma) diluted 1/1000 was added to each well and incubated for 1 hr at 37° C. Finally plates were washed eight times, the reactions were developed by addition of tetramethyl-benzidine substrate (Kirkegaard and Perry Laboratories, Gaithersburg, Md.) and stopped by addition of phosphoric acid (0.4M). The absorbance was measured at 450 nm in UVMax automated plate reader (Molecular Devices Corp., Menlo Park, Calif.). For biotinylation, HSA (2 mg/ml) in sodium bicarbonate buffer pH 8.5 was incubated with biotin (long arm) N-hydroxy succumide ester (Vector Lab., CA) for 2 hrs at room temperature, stopped the reaction by addition of 5 μl ethanolamine, and dialyzed overnight with PBS/0.05% sodium azide.

[1] = BALB/C mice, following second IP immunization

Which “elevation of serum total IgE” value (BALB/C mice, SC immunization, even following the boost) does the source give for “LNnT-HSA: Multivalent lacto-N-neotetraose conjugated with human serum albumin; 13 molecules of sugar per HSA molecule” here?
Its value is “not seen”.

What about the “serum total IgE” value (BALB/C mice, following first boosting IP immunization, vs saline, HSA, Le^y-HSA, HSA-Alum) of the same substance?
The value was “significantly higher”.

What about the “elevation of serum IgE” value (BALB/C mice, following primary inoculation) of the same substance?
Its value is “not seen”.

And the “duration of high elevation of serum IgE” value [1]?
The value was “at least 8 weeks”.

What about the “serum IgE” value [1] of the same substance?
The value was “significantly elevated”.

What about the “serum IgE” value (C57BL/6 mice, following first IP immunization) of the same substance?
Its value is “did not show the increase”.

And the “serum IgE” value (C57BL/6 mice, following second IP immunization)?
Its value is “induced the increase”.

And the “serum IgE” value (CBA/CaJ xid mice vs control CBA/CaJ mice, IP immunization)?
Its value is “significantly lower”.

What about the “serum IgE” value (CBA/CaJ xid mice, IP immunization, vs saline or HSA) of the same substance?
The value was “significantly higher”.

What about the “serum IgE” value (CBA/J mice, following first boosting IP immunization, vs control groups) of the same substance?
The value was “significant elevation”.

And the “polyclonal IgE production” value (IL-4 deficient mice, repeated IP immunization)?
The value was “did not induce polyclonal IgE production”.

And the “time that high levels of non-specific IgE persist” value (longest time point in the study)?
The value was “at least 70 days”.
